## Apparent affinities of Ab-14 variants for a coronavirus HR2 peptide

The measurements come from Li et al. 2023 (doi:10.1038/s41467-023-39022-2) through the FLAb antibody collection.

The target is the same throughout: PDVDLGDISGINAS, from the HR2 region of SARS-CoV-2 spike.

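The variants were designed computationally from a first round of random CDR variants and then made and measured. Several design methods are mixed in this list. AlphaSeq pools MATa yeast showing the antibodies with MATalpha yeast showing the peptide. Mating (16 h, 30 °C) was followed by selection of diploids and sequencing of their barcodes. Read counts were normalised to the haploid input and turned into Kd by a linear fit to BCL2-family pairs of known affinity, for each replicate. The assay was run in six technical replicates.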

The variants keep the light chain, the linker and the frameworks of Ab-14 (scFv order VH, a (GGGGS)3 linker, VL).
VH: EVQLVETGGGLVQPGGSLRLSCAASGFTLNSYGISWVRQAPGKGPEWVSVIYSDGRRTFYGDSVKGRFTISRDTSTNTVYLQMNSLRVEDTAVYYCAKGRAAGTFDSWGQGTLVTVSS
VL: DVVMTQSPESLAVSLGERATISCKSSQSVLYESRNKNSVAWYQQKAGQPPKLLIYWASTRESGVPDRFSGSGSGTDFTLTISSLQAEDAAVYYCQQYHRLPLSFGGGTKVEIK

The parent's heavy chain CDRs are GFTLNSYGIS, VIYSDGRRTFYGDSVK, GRAAGTFDS; each variant's own CDRs replace them letter for letter.
Variants here have at most six changes.
Values are log10 of the apparent Kd in nM; lower means stronger binding.
Replicates are averaged; those with no signal do not enter the mean.
"ND" marks a missing value. The strain was present, yet no cells mated with the target were sequenced in that replicate, which points to weak or no binding.
Of ten entries with the parent sequence, four were seen in most replicates (averages 0.34 to 2.37), three in one and three in none, so single entries are noisy.

Variant GFTLNSYGIS / VIYSDGRRTFYSDSVK / GVEAGTFDS gave 0.30, 0.41, -0.28, -0.16, 0.26, 0.02 (mean 0.09). Variant GFQLNDYGIS / VIYSDGRRTFYGDSVK / GRTAGTFDM gave ND, ND, 1.60, 1.97, 1.07, 1.33 (mean 1.49). For GFELNSYGIS / VIYSDGIRTSYGDSVK / GRAAGTFDS, the assay gave 0.37, 0.35, 0.81, 1.09, 0.52, 1.38 (mean 0.75). Variant GFTLDSYGIS / VIYADGRRTFYGDSVK / GQAAGTFSS gave -0.10, 0.13, 0.44, -0.08, 0.08, 0.27 (mean 0.12). For MFTLNEYGIS / VIYSDGRRTFYGDSVK / GRTAGTFDT, the assay gave ND, ND, ND, ND, ND, 2.21. For GFTLNSYGIS / VIYSDGKRTFYDDSVK / GNAAGTFDS, the assay gave 0.62, 0.68, 0.45, 0.19, 0.62, 0.48 (mean 0.51). With GFQLNEYGIS / VIYSDGRRTFYGDSVK / GRAAGTFCV the result was ND, ND, ND, ND, ND, ND.

For GFTLNEYGIS / VIYSDGRRTFYGDAVK / GRAAGTFDI, the assay gave 1.49, 0.59, 0.57, 1.32, 0.46, 1.19 (mean 0.94). For GFTLNEYGIS / VIYSDGRRTFYGDLVK / GRAAVMFDQ, the assay gave ND, ND, ND, ND, ND, ND. Variant GFTLNNYGIS / VIYSDGRRTFYGDSVK / GRNAGTFDS gave 1.78, 1.27, 2.66, 1.75, 1.26, ND (mean 1.74). With GKTLNSYGIS / VIYSDGRRTFYDDSVK / GQLAGTFDS the result was 0.14, 0.31, 0.83, 0.45, 0.31, 0.17 (mean 0.37). For GFTLNSYGIS / VIYSDGRRTFYTDSVK / GLLAGTFDS, the assay gave 0.35, 1.07, 1.32, 0.59, 0.75, 0.85 (mean 0.82). For GFQLNEYGIS / VIYSDGRRTFYADSVK / GRTAGTFDS, the assay gave -0.46, -0.07, -0.09, -0.27, -0.18, 0.03 (mean -0.18). With GFDLNSYGIS / VIYSDGRRTFYFDSVK / GRAAGTFDS the result was ND, ND, ND, ND, 2.10, ND.

For GFDLNSYGIS / VIYSDGRRTFYVDSVK / GRLAGTFDS, the assay gave ND, 0.36, 0.16, 0.71, 1.59, 1.47 (mean 0.86). Variant GQTLNSYGIS / VIYSDGRRTFYGDSVK / GRNAGTFDS showed ND, ND, ND, ND, ND, ND. With GFTLNEYGIS / VIYSDGRRTFYSDSVK / GQVAGTFDS the result was 0.71, 0.20, -0.19, 0.32, -0.51, 0.11 (mean 0.11). Variant GFNLNSYGIS / VIYSDGRRTFYTDSVK / GQLAGTFDS gave 0.83, 0.25, 0.85, 0.42, 1.02, 1.08 (mean 0.74). For GFTLNSYGIS / VIYSDGRRTFYSDSVK / HRAAITFDS, the assay gave ND, ND, ND, ND, ND, ND. Variant GFTLNSYGIS / VIYSDGRRTFYGDSVK / GRAAGHFDS gave ND, ND, ND, ND, ND, ND. For GFTLNSYGIS / VIYSDGRRTFYGDSVK / GRTAGTFWV, the assay gave ND, ND, ND, ND, ND, ND.

Variant GFQLNDYGIS / VIYSDGRRTFYGDSVK / GRTAGTFDS gave 0.96, 0.08, 0.16, 0.39, 0.84, 0.97 (mean 0.57). Variant NFTLNHYGIS / VIYSRGRRTQYIDSVK / TRAAGTFDS gave ND, ND, ND, ND, ND, ND. With GFTLNSYGIS / VIYSDGRRTFYSDSVK / GAAIGTFDS the result was ND, 2.22, ND, ND, ND, ND. For GFTIGEYGIS / VIYSDGRRTMYGDSVK / ERAAGTFDS, the assay gave ND, 2.57, ND, ND, ND, ND. For GFDLNSYGIS / VIYSDGRRTFYTDNVK / GKTAGTFDS, the assay gave -0.15, 0.01, 0.30, 0.06, 0.01, -0.15 (mean 0.01). For GFELNSYGIS / VIYSDGRRTFYIDSVK / GQAAGTFDA, the assay gave 1.04, 1.28, 1.34, 0.97, 0.98, 1.06 (mean 1.11). With GFTRNSYGIS / VIYSDGRRTFYGDKVK / GRVAGTFDM the result was ND, ND, ND, ND, ND, ND.

For GFTLNSYGIS / VIYSDGRRTFYGDSVK / QRAAGTFDV, the assay gave ND, ND, ND, ND, ND, ND. Variant GYTLNEYGIS / VIYSDGRRTFYGDSVK / GRTAGTFDS showed ND, 1.56, 0.85, ND, 1.81, 2.53 (mean 1.69). With GFTLNSYGIS / VIYSDGRRTFYADSVK / GRATGTFDW the result was ND, ND, ND, ND, ND, ND.

A selection of 2 entries from above:

CDR-H1	CDR-H2	CDR-H3	log10 Kd, replicates	mean log10 Kd (nM)
GFTRNSYGIS	VIYSDGRRTFYGDKVK	GRVAGTFDM	ND, ND, ND, ND, ND, ND	ND
GFTLNSYGIS	VIYSDGRRTFYGDSVK	GRAAGHFDS	ND, ND, ND, ND, ND, ND	ND

Values of this round are not directly comparable with the first-round values of the same sequences.
Nonspecific signal, from three strains lacking the peptide, appeared in 1% of pairings of all heavy chain designs, centred on 2.08 (5% of these signals below 0.84); values are not corrected for it.
The authors averaged sequences with at least three values out of six and counted those with two or fewer as poor binders.